# Measured values from PubChem BioAssay AID556 (SRMLSC, 2006).
# The list shows a part of the results, in another mix than the full data. Active and inactive are the calls of the source.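 How the source made its calls: active means the 320 compounds with the highest percent inhibition in the single-dose primary screen, excluding strongly autofluorescent ones (cut at about 32% in these data); inactive means the rest, inconclusive results apart.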
# Test system: diphosphomevalonate decarboxylase (Streptococcus pneumoniae D39)
# Experiment: diphosphomevalonate decarboxylase activity blockers – biochemical, PK/LDH-coupled NADH fluorescence, primary screen (AID 556);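 on inhibition: kinetic rate of NADH fluorescence loss reporting ADP formed by the decarboxylase; 0% = full reaction rate with carrier and 100% = no-substrate background rate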
# Conditions: purified DPM-DC, at 10 µM; stronger effect = higher value
row,SMILES,inhibition
1,CP(=S)(Nn1cnnc1)Oc1ccccc1 (configuration not stated),inactive: 1%
2,COP1(=S)c2c(C)nn(CCC#N)c2N=C(c2ccc(F)cc2)N1C (configuration not stated),inactive
3,CP(=O)(NC(=O)Nc1ccccc1)Oc1ccccc1 (configuration not stated),inactive
4,O=C(COc1ccccc1)OC1CN2CCC1CC2 (configuration not stated),inactive
5,CCOP(C)(=S)SCC(=O)NC(C)C(=O)O (configuration not stated),inactive
6,O=C(OC1CN2CCC1CC2)C12CC3CC(CC(C3)C1)C2 (configuration not stated),inactive
7,Cc1ccc(NP(C)(=O)Oc2ccccc2)c(C)c1 (configuration not stated),inactive
8,COc1ccccc1OP(C)(=O)Nc1ccc(C)cc1 (configuration not stated),inactive
9,CCOP1(=S)c2c(C)nn(CCC#N)c2N=C(c2ccccc2F)N1C (configuration not stated),inactive
10,CCOP1(=S)c2c(C)nn(CCC#N)c2N=C(c2ccc(F)cc2)N1C (configuration not stated),inactive
11,Cc1cccc(OCC(=O)OC2CN3CCC2CC3)c1 (configuration not stated),inactive
12,Cc1ccc(C)c(NP(C)(=O)Oc2ccccc2)c1 (configuration not stated),inactive
13,O=P1(Nc2ccccn2)COc2ccccc2OC1,inactive: 7%
14,Clc1n[nH]nc1-c1nn[nH][15n]1,inactive
15,Cc1nc2ccc3ccccc3c2s1.O=[N+]([O-])c1cc([N+](=O)[O-])c(O)c([N+](=O)[O-])c1,inactive: 2%
16,Cc1nn(-c2ccccc2)c2c1P(=O)(N1CCOCC1)N(C)C(c1ccccc1)=N2 (configuration not stated),inactive
17,O=P1(Nc2ncccn2)COc2ccccc2OC1,inactive: 1%
18,Cc1ccc(OCC(=O)OC2CN3CCC2CC3)cc1 (configuration not stated),inactive
19,O=P1(Nc2ccc(Br)cn2)COc2ccccc2OC1,inactive

row,SMILES,inhibition
1,CN(C)CCOC(=O)C(O)(c1ccccc1)C1CCCCC1 (configuration not stated),inactive
2,O=C(OC1CN2CCC1CC2)c1cccc(Cl)c1 (configuration not stated),inactive
3,O=P(Nc1nccs1)(c1ccccc1)c1ccccc1,inactive: 14%
4,CCOP(C)(=S)SCC(=O)NC(C)(CC)C(=O)O (configuration not stated),inactive
5,c1nnnn1CCn1cnnn1,inactive
6,CP(=O)(Nc1ccc2c(c1)OCCO2)Oc1ccccc1 (configuration not stated),inactive
7,Cc1ccccc1NP(C)(=O)Nc1ccccc1C,inactive
8,O=P1(Nc2nc3ccc(Cl)cc3s2)COc2ccccc2O1 (configuration not stated),inactive
9,CP(=O)(Nc1ccccc1F)Oc1ccccc1 (configuration not stated),inactive
10,COC(=O)c1cc2c(s1)N=C(c1ccccc1)N(C)P2(=O)N1CCOCC1 (configuration not stated),inactive
11,COc1ccccc1OP(C)(=O)Nc1ccc(C)c(C)c1 (configuration not stated),inactive
12,Cc1nc2ccc3ccccc3c2o1.O=[N+]([O-])c1cc([N+](=O)[O-])c(O)c([N+](=O)[O-])c1,inactive: 22%
13,Cc1c2non([O-])c-2c(C)[n+](=O)[n+]1[O-],inactive
14,CP(=O)(Nc1ccccn1)Oc1ccccc1 (configuration not stated),inactive
15,CCN(CC)CC(O)COC(=O)C(O)(c1ccccc1)C1CCCCC1 (configuration not stated),inactive
16,COc1ccccc1OP(C)(=O)Nc1c(C)n(C)n(-c2ccccc2)c1=O (configuration not stated),inactive
17,CCc1nc2c(n1)c1c(non1O)c1c2no[n+]1[O-],inactive
18,CP(=O)(Oc1ccccc1)N1CCOC1=O (configuration not stated),inactive
